Target: 5-hydroxytryptamine receptor 5A (Mus musculus, UniProt P30966)
Test: Binding affinity towards mouse 5-hydroxytryptamine 5A receptor

Chains of the proteins cited; added tags and fusions are not shown.
UniProt P30966, whole entry: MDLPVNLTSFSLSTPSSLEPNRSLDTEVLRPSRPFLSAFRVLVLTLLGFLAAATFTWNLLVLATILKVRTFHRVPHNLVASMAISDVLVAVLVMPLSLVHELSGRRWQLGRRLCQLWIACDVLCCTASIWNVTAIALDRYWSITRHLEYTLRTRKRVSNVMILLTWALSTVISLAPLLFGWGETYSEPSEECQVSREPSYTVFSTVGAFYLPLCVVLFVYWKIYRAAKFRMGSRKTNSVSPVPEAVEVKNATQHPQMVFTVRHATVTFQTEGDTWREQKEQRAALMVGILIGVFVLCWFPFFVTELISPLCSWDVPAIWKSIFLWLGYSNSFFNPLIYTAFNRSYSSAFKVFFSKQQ

**Q.** For `NCCc1c[nH]c2ccc(O)cc12` [SEROTONIN], which Ki is on record?
**A.** 150 nM
